Source: PubChem BioAssay AID1789 (The Scripps Research Institute Molecular Screening Center, 2009)
The entries are a selection whose mix differs from that of the whole data set. Active and inactive are the calls of the source.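 How the source made its calls: active means inhibition above the screen-wide mean plus 3 SD, computed separately per campaign (cut at about 16% in these data); inactive means the rest.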

tested on: Heat shock protein HSP 90 (rabbit reticulocyte lysate; luciferase refolding); assay: inhibitors of HSP90 chaperone activity – cell lysate, luminescence, primary screen (AID 1789); conditions: 3 h, at 5.6 µM, hits give high values;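 further: 0% = DMSO wells and 100% = 60 µM geldanamycin wells; inhibitors lower the luminescence because luciferase stays unfolded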

SMILES | inhibition
COc1ccccc1OP(C)(=O)Nc1c(C)cccc1C (stereo not drawn) | inactive: 0.95%
CN1CCCCC1COC(=O)C1(O)c2ccccc2CCc2ccccc21 (stereo not drawn) | inactive: 1.43%
CP(=O)(Nc1ccc(SC(F)(F)F)cc1)Oc1ccccc1 (stereo not drawn) | inactive: -2.73%
CCCOc1ccc(NP(C)(=O)Oc2ccc(Cl)cc2)cc1 (stereo not drawn) | inactive: 0.23%
O=[N+]([O-])c1cc([N+](=O)[O-])c(Nc2nnnn2CCO)c([N+](=O)[O-])c1 | inactive: -0.18%
CCOC(=O)C(CC)C1=NC(C)(C)Cc2ccccc21.O=[N+]([O-])c1cc([N+](=O)[O-])c(O)c([N+](=O)[O-])c1 (stereo not drawn) | inactive: 5.41%
Cc1nc2ccc3ccccc3c2s1.O=[N+]([O-])c1cc([N+](=O)[O-])c(O)c([N+](=O)[O-])c1 | inactive: 1.49%
O=[N+]([O-])c1cc([N+](=O)[O-])c(-n2nnc3ccccc32)c([N+](=O)[O-])c1 | inactive: 1.29%
Cc1ccc(C)c(NP(C)(=O)Oc2ccccc2)c1 (stereo not drawn) | inactive: 0.82%
CP(=O)(Nc1cccc(Br)c1)Oc1ccccc1 (stereo not drawn) | inactive: 1.65%
Cc1cc(C)cc(OP(C)(=O)Nc2ccccn2)c1 (stereo not drawn) | inactive: -0.5%
COc1ccccc1OP(C)(=O)Nc1cccc(Br)c1 (stereo not drawn) | inactive: 6.66%
CCOC(=O)c1ccc(NP(C)(=O)Oc2cc(C)cc(C)c2)cc1 (stereo not drawn) | inactive: 1.77%
Cc1cc(C)cc(OP(C)(=O)Nc2ccc(C)cc2C)c1 (stereo not drawn) | inactive: 0.46%
CC1=NCCc2c1[nH]c1ccccc21.O=[N+]([O-])c1cc([N+](=O)[O-])c(O)c([N+](=O)[O-])c1 | inactive: 5.12%
O=C(O)c1cccc(Nc2c([N+](=O)[O-])cc([N+](=O)[O-])cc2[N+](=O)[O-])c1 | inactive: -1.85%
COc1ccccc1OP(C)(=O)Nc1ccc(C)cc1 (stereo not drawn) | inactive: 3.52%
Cc1ccc(NP(C)(=O)Oc2ccccc2)c(C)c1 (stereo not drawn) | inactive: -1.69%
CCOC(=O)c1ccc(NP(C)(=O)Oc2ccccc2)cc1 (stereo not drawn) | inactive: -1.18%
Cc1cc(C)cc(OP(C)(N)=O)c1 (stereo not drawn) | inactive: 0.6%
COc1ccccc1OP(C)(=O)Nc1cc(Cl)ccc1C (stereo not drawn) | inactive: 1.81%

SMILES | inhibition
COc1ccc(OP(C)(=O)Nc2cccc(F)c2)cc1 (stereo not drawn) | inactive: 2.6%
O=[N+]([O-])c1ccc2c(c1)C=Nc1ccccc1O2 | inactive: 1.16%
CC(C)(C)c1ccc(OP(C)(=O)Nc2ccc(SC(F)(F)F)cc2)cc1 (stereo not drawn) | inactive: 0.13%
Cc1cccc(C)c1OP(C)(N)=O (stereo not drawn) | inactive: -3.59%
CCN(CC)CCCOC(=O)C(O)(c1ccccc1)c1ccccc1 | inactive: -1.42%
CCOC(=O)c1ccc(NP(C)(=O)Oc2ccc(OC)cc2)cc1 (stereo not drawn) | inactive: -0.34%
CCOP(C)(=S)SCC(=O)NC(C)C(=O)O (stereo not drawn) | inactive: 5.61%
CP(=O)(Nc1ccccn1)Oc1ccc(Cl)cc1 (stereo not drawn) | inactive: -3.01%
Cc1cccc(C)c1OP(C)(=O)Nc1ccc(SC(F)(F)F)cc1 (stereo not drawn) | inactive: -1.54%
CP(=O)(Nc1ccc(SC(F)(F)F)cc1)Oc1ccc(Cl)cc1 (stereo not drawn) | inactive: 7.61%
CP(=O)(Oc1ccccc1)OC(c1ccccc1)C(F)(F)F (stereo not drawn) | inactive: 0.3%
CCc1ccc(OP(C)(=O)N2CCN(c3ccc([N+](=O)[O-])cc3)CC2)cc1 (stereo not drawn) | inactive: 6.88%
CP(=O)(NC(=O)Nc1ccccc1)Oc1ccccc1 (stereo not drawn) | inactive: -0.06%
Cc1cc(C)cc(OP(C)(=O)Nc2ccc(SC(F)(F)F)cc2)c1 (stereo not drawn) | inactive: 1.12%
CP(=S)(Nn1cnnc1)Oc1ccccc1 (stereo not drawn) | inactive: 9.09%
CP(=O)(Nc1ccccc1Br)Oc1ccccc1 (stereo not drawn) | inactive: 0.32%
COc1ccccc1OP(C)(=O)Nc1ccccc1 (stereo not drawn) | inactive: -0.03%
CCOC(=O)c1ccc(NP(C)(=O)Oc2ccc(Cl)cc2)cc1 (stereo not drawn) | inactive: 4.56%
CP(=O)(OC12CC3CC(CC(C3)C1)C2)OC12CC3CC(CC(C3)C1)C2 | inactive: 3.42%
CC(C)(C)c1ccc(OP(C)(=O)O)cc1 | inactive: -9.98%
COc1ccccc1OP(C)(=O)Nc1ccccc1Br (stereo not drawn) | inactive: -3.32%

SMILES | inhibition
CP(=O)(Nc1ccc(Cl)cc1)Oc1ccc(F)cc1 (stereo not drawn) | inactive: 0.95%
CN(C)C(=O)c1c([N+](=O)[O-])cc([N+](=O)[O-])cc1[N+](=O)[O-] | inactive: 5.62%
CCN(CC)CC(O)COC(=O)C(O)(c1ccccc1)C1CCCCC1 (stereo not drawn) | inactive: -4.93%
COc1ccc(OP(C)(=O)Nc2ccc(Br)cc2)cc1 (stereo not drawn) | inactive: -3.2%
COc1ccccc1OP(C)(=O)Nc1c(C)n(C)n(-c2ccccc2)c1=O (stereo not drawn) | inactive: 3.92%
O=C(OCCCN1CCCC1)C(O)(c1ccccc1)C1CCCCC1 (stereo not drawn) | inactive: -0.82%
CP(=O)(Oc1ccccc1)N1CCOC1=O (stereo not drawn) | inactive: 0.81%
CCc1ccc(OP(C)(=O)Nc2cccnc2)cc1 (stereo not drawn) | inactive: 1.14%
O=[N+]([O-])c1cc([N+](=O)[O-])c(Nc2ccccn2)c([N+](=O)[O-])c1 | inactive: 3.38%
Cc1c(NP(C)(=O)Oc2ccc(C(C)C)cc2)c(=O)n(-c2ccccc2)n1C (stereo not drawn) | inactive: -0.68%
CP(=O)(Nc1ccccn1)Oc1ccccc1 (stereo not drawn) | inactive: -4.18%
COc1ccccc1OP(C)(=O)Nc1ccc(C)cc1C (stereo not drawn) | inactive: 0.77%
CCc1ccc(OP(C)(=O)O)cc1 | inactive: 2.79%
COc1ccccc1OP(C)(=O)Nc1ccc(Br)cc1 (stereo not drawn) | inactive: -0.71%
COc1ccc(OP(C)(=O)Nc2ccccn2)cc1 (stereo not drawn) | inactive: -0.87%
CN(C)CCOC(=O)C(O)(c1ccccc1)C1CCCC1 (stereo not drawn) | inactive: -5.05%
Cc1nc2ccc3ccccc3c2o1.O=[N+]([O-])c1cc([N+](=O)[O-])c(O)c([N+](=O)[O-])c1 | inactive: -2.53%
CP(=O)(OCCOc1ccccc1)OCCOc1ccccc1 | inactive: 1.31%
CP(=O)(Nc1ccc(Cl)cc1Cl)Oc1ccccc1 (stereo not drawn) | inactive: -0.1%
Cc1cc(C)cc(OP(C)(=O)Nc2cccc(C(F)(F)F)c2)c1 (stereo not drawn) | inactive: 4.21%
COc1ccccc1OP(C)(=O)Nc1ccc(C)c(C)c1 (stereo not drawn) | inactive: 0.2%
